Measurements reported in the OPERA property sets (Mansouri et al. 2018).

With `Cc1c([N+](=O)[O-])no[n+]1[O-]` the logP was 0.78.
